Source: patent publication US6114132A, “Prosphatase binding assay” (Merck Frosst Canada & Co., priority 1997, dated 2000)

Amino acid sequences for entries named in this document (tags omitted). A change or cut given only in a name is not applied to a line headed by its entry. Residues count along the entry.
UniProt P18031, 1-320 C215S limits assumed: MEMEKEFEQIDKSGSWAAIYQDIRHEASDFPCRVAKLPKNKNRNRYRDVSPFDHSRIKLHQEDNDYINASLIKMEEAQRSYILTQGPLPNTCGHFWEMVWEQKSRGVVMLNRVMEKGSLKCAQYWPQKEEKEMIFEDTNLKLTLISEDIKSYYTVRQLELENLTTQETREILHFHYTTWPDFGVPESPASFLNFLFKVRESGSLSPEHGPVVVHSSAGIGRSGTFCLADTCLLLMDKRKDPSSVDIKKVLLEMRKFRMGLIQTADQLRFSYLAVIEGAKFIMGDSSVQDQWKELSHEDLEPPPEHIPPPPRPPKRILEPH
UniProt P18031, 1-320 limits assumed, stated change not applied: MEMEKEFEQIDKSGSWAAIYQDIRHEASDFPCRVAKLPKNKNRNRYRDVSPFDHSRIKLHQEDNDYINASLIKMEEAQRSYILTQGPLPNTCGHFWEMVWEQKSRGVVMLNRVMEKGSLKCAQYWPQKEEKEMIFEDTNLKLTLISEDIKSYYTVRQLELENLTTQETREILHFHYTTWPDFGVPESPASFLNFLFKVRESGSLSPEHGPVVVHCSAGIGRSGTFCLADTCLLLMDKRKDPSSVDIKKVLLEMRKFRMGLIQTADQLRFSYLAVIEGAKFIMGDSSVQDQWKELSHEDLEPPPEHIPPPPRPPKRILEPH

What was measured:
[1] = target: human recombinant GST-PTP1B, non-mutated (Cys215) (Homo sapiens, UniProt P18031); assay: GST-PTP1B SPA binding assay with non-mutated (Cys215) enzyme; conditions: read-out: IC50, Non-Mutated
[2] = target: human recombinant GST-PTP1B, mutated (Ser215) (Homo sapiens, UniProt P18031, C215S); assay: GST-PTP1B SPA binding assay with mutated enzyme (Ser215); conditions: read-out: IC50, Mutated

With CC(C)C[C@H](NC(=O)[C@H](Cc1ccc(C(F)(F)P(=O)(O)O)cc1)NC(=O)[C@H](CCC(=O)O)NC(=O)[C@H](CC(=O)O)NC(=O)[C@H](C)NC(=O)[C@@H](N)CC(=O)O)C(N)=O the IC50 [1] was 400 nM and the IC50 [2] was 100 nM.
